Experimental data reported in patent publication US9221831B2, “Buprenorphine analogs” (dated 2015).

Key:
[1] = target: human opioid receptor-like (ORL-1) (Homo sapiens (Human), UniProt P41146); assay: ORL-1 receptor binding assay ([3H]-nociceptin)
μ-opioid receptor = μ-opioid receptor (Homo sapiens (Human), UniProt P35372); assay: μ-opioid receptor functional assay ([35S]GTPγS); details: [35S]GTPγS functional assay
κ opioid receptor = κ opioid receptor (Homo sapiens (Human), UniProt P41145); assay: κ-opioid receptor functional assay ([35S]GTPγS); details: [35S]GTPγS functional assay

| Compound | Binding Affinity, ORL-1 [1] | GTPγS Opioid Receptor μ Emax (μ-opioid receptor) | GTPγS Opioid Receptor κ Emax (κ opioid receptor) | GTPγS Opioid Receptor μ EC50 (μ-opioid receptor) | GTPγS Opioid Receptor κ EC50 (κ opioid receptor) |
| --- | --- | --- | --- | --- | --- |
| CO[C@]12CC[C@@]3(C[C@@H]1COCc1ccccc1)[C@H]1Cc4ccc(C#N)c5c4[C@@]3(CCN1C)[C@H]2O5 | Inactive | 101.00% | 95.00% |  |  |
| CO[C@]12CC[C@@]3(C[C@@H]1COCc1ccccc1)[C@H]1Cc4ccc(C(=O)O)c5c4[C@@]3(CCN1CC1CC1)[C@H]2O5 |  |  | 84.67% |  |  |
| CO[C@]12CC[C@@]3(C[C@@H]1COCc1cccc(NC(C)=O)c1)[C@H]1Cc4ccc(O)c5c4[C@@]3(CCN1CC1CC1)[C@H]2O5 |  |  | 23.00% |  |  |
| COCCOCCOCCOc1ccc(COC[C@H]2C[C@@]34CC[C@]2(OC)[C@@H]2Oc5c(OC)ccc6c5[C@@]23CCN(CC2CC2)[C@@H]4C6)cc1 | Inactive |  | 22.33% | Inactive |  |
| COc1ccc2c3c1O[C@H]1[C@@]4(OC)CC[C@@]5(C[C@@H]4COCc4ccccc4)[C@@H](C2)N(CC(N)=O)CC[C@]315 | Inactive | 56.67% | 78.67% |  |  |
| COc1ccc2c3c1O[C@H]1[C@@]4(OC)CC[C@@]5(C[C@@H]4COCc4ccccc4)[C@@H](C2)N(CCC(=O)O)CC[C@]315 | Inactive | 62.00% | 94.33% |  |  |
| COc1ccc2c3c1O[C@H]1[C@@]4(OC)CC[C@@]5(C[C@@H]4COC(=O)[C@@H](N)CCC(N)=O)[C@@H](C2)N(CC2CC2)CC[C@]315 |  |  | 43.83% | Inactive |  |
| CO[C@]12CC[C@@]3(C[C@@H]1COCc1ccccc1)[C@H]1Cc4ccc(-c5nn[nH]n5)c5c4[C@@]3(CCN1CC1CC1)[C@H]2O5 |  | 27.33% | 68.00% |  |  |
| COc1ccc2c3c1O[C@H]1[C@@]4(OC)CC[C@@]5(C[C@@H]4COCc4cccc(NS(C)(=O)=O)c4)[C@@H](C2)N(CC2CC2)CC[C@]315 |  |  |  |  | Inactive |
| COc1ccc2c3c1O[C@H]1[C@@]4(OC)CC[C@@]5(C[C@@H]4CNCC(N)=O)[C@@H](C2)N(CC2CC2)CC[C@]315 |  | 31.25% | 29.25% |  |  |
| COc1ccc2c3c1O[C@H]1[C@@]4(OC)CC[C@@]5(C[C@@H]4COCC(N)=O)[C@@H](C2)N(CC2CC2)CC[C@]315 |  | 24.50% | 59.00% |  |  |
| COC(=O)COc1cccc(COC[C@H]2C[C@@]34CC[C@]2(OC)[C@@H]2Oc5c(O)ccc6c5[C@@]23CCN(CC2CC2)[C@@H]4C6)c1 |  |  | 40.33% |  |  |
| COc1ccc2c3c1O[C@H]1[C@@]4(OC)CC[C@@]5(C[C@@H]4COCc4cccc(C(=N)N)c4)[C@@H](C2)N(CC2CC2)CC[C@]315 |  |  | 39.40% | Inactive |  |
| COc1ccc2c3c1O[C@H]1[C@@]4(OC)CC[C@@]5(C[C@@H]4COCc4ccc(C(=O)NCC(=O)O)cc4)[C@@H](C2)N(CC2CC2)CC[C@]315 |  | 7.67% | 1.00% |  | Inactive |
| COc1ccc2c3c1O[C@H]1[C@@]4(OC)CC[C@@]5(C[C@@H]4COC(=O)[C@@H](N)CO)[C@@H](C2)N(CC2CC2)CC[C@]315 |  |  | 48.00% | Inactive |  |
| COc1ccc2c3c1O[C@H]1[C@@]4(OC)CC[C@@]5(C[C@@H]4COCC(O)CO)[C@@H](C2)N(CC2CC2)CC[C@]315 (stereo partly drawn) |  |  | 87.67% | Inactive |  |
| COCCOCCOCCOC[C@H]1C[C@@]23CC[C@]1(OC)[C@@H]1Oc4c(OC)ccc5c4[C@@]12CCN(CC1CC1)[C@@H]3C5 | Inactive |  | 26.00% | Inactive |  |
| COc1ccc2c3c1O[C@H]1[C@@]4(OC)CC[C@@]5([C@@H](CCC(=O)O)[C@@H]4COCc4ccccc4)[C@@H](C2)N(CC2CC2)CC[C@]315 |  |  | 41.00% |  |  |
| COc1ccc2c3c1O[C@H]1[C@@]4(OC)CC[C@@]5(C[C@@H]4COCc4ccc(CC(=O)O)cc4)[C@@H](C2)N(CC2CC2)CC[C@]315 |  | 17.33% | 16.67% |  |  |
| COc1ccc2c3c1O[C@H]1[C@@]4(OC)CC[C@@]5([C@@H](CC#N)[C@@H]4COCc4ccccc4)[C@@H](C2)N(CC2CC2)CC[C@]315 |  | 22.75% | 38.00% |  |  |

| Compound | Binding Affinity, ORL-1 [1] | GTPγS Opioid Receptor μ Emax (μ-opioid receptor) | GTPγS Opioid Receptor κ Emax (κ opioid receptor) | GTPγS Opioid Receptor μ EC50 (μ-opioid receptor) | GTPγS Opioid Receptor κ EC50 (κ opioid receptor) |
| --- | --- | --- | --- | --- | --- |
| COc1ccc2c3c1O[C@H]1[C@@]4(OC)CC[C@@]5(C[C@@H]4COC(=O)[C@H](C)N)[C@@H](C2)N(CC2CC2)CC[C@]315 | Inactive |  | 45.00% | Inactive |  |
| COc1ccc2c3c1O[C@H]1[C@@]4(OC)CC[C@@]5(C[C@@H]4COCc4cccc(CC(=O)O)c4)[C@@H](C2)N(CC2CC2)CC[C@]315 |  |  | 36.67% | Inactive |  |
| COc1ccc2c3c1O[C@H]1[C@@]4(OC)CC[C@@]5(C[C@@H]4CNC(=O)[C@H](C)N)[C@@H](C2)N(CC2CC2)CC[C@]315 |  |  |  | Inactive |  |
| COc1ccc2c3c1O[C@H]1[C@@]4(OC)CC[C@@]5(C[C@@H]4COCc4ccccc4)[C@@H](C2)N(CCC(N)=O)CC[C@]315 | Inactive | 78.67% | 103.67% |  |  |
| COc1ccc2c3c1O[C@H]1[C@@]4(OC)CC[C@@]5(C[C@@H]4COCc4ccc(NC(C)=O)cc4)[C@@H](C2)N(CC2CC2)CC[C@]315 |  |  | 28.00% | Inactive |  |
| CO[C@]12CC[C@@]3(C[C@@H]1COCc1ccccc1)[C@H]1Cc4ccc(C(O)CO)c5c4[C@@]3(CCN1CC1CC1)[C@H]2O5 (stereo partly drawn) |  | 74.67% | 89.00% |  |  |
| COCCOCCOCCOCCOCCOc1ccc(COC[C@H]2C[C@@]34CC[C@]2(OC)[C@@H]2Oc5c(OC)ccc6c5[C@@]23CCN(CC2CC2)[C@@H]4C6)cc1 | Inactive |  |  | Inactive | Inactive |
| COc1ccc2c3c1O[C@H]1[C@@]4(OC)CC[C@@]5(C[C@@H]4COCc4ccccc4)[C@@H](C2)N(Cc2nn[nH]n2)CC[C@]315 |  | 101.33% | 65.00% |  |  |
| CO[C@]12CC[C@@]3(C[C@@H]1COCc1ccccc1)[C@H]1Cc4ccc(C(=O)O)c5c4[C@@]3(CCN1C)[C@H]2O5 | Inactive | 90.00% | 107.67% |  |  |
| COc1ccc2c3c1O[C@H]1[C@@]4(OC)CC[C@@]5(C[C@@H]4COCc4ccc(N(S(C)(=O)=O)S(C)(=O)=O)cc4)[C@@H](C2)N(CC2CC2)CC[C@]315 |  |  | 23.33% |  |  |
| CO[C@]12CC[C@@]3(C[C@@H]1COCc1ccc(C(N)=O)cc1)[C@H]1Cc4ccc(O)c5c4[C@@]3(CCN1CC1CC1)[C@H]2O5 |  |  | 17.33% |  |  |
| CNC(=O)Nc1cccc(COC[C@H]2C[C@@]34CC[C@]2(OC)[C@@H]2Oc5c(O)ccc6c5[C@@]23CCN(CC2CC2)[C@@H]4C6)c1 |  |  | 42.00% |  |  |
| COCCOCCOCCOCCOCCOC[C@H]1C[C@@]23CC[C@]1(OC)[C@@H]1Oc4c(OC)ccc5c4[C@@]12CCN(CC1CC1)[C@@H]3C5 | Inactive |  | 18.75% | Inactive |  |
| CO[C@]12CC[C@@]3(C[C@@H]1COCc1ccccc1)[C@H]1Cc4ccc(CC(O)CO)c5c4[C@@]3(CCN1CC1CC1)[C@H]2O5 (stereo partly drawn) |  | 38.33% | 80.33% |  |  |
| COc1ccc2c3c1O[C@H]1[C@@]4(OC)CC[C@@]5(C[C@@H]4CSc4nc(C)ns4)[C@@H](C2)N(C)CC[C@]315 | Inactive |  |  |  | Inactive |
| CO[C@]12CC[C@@]3(C[C@@H]1COCc1ccccc1)[C@H]1Cc4ccc(OCC(=O)O)c5c4[C@@]3(CCN1CC1CC1)[C@H]2O5 | Inactive | 61.33% | 92.25% |  |  |
| CO[C@]12CC[C@@]3(C[C@@H]1COCc1ccccc1)[C@H]1Cc4ccc(C#N)c5c4[C@@]3(CCN1CC1CC1)[C@H]2O5 |  | 44.60% | 85.00% |  |  |
| CO[C@]12CC[C@@]3(C[C@@H]1COCc1cccc(OCC(=O)O)c1)[C@H]1Cc4ccc(O)c5c4[C@@]3(CCN1CC1CC1)[C@H]2O5 |  |  | 35.00% |  |  |
| COc1ccc2c3c1O[C@H]1[C@@]4(OC)CC[C@@]5(C[C@@H]4CSc4nncs4)[C@@H](C2)N(CC2CC2)CC[C@]315 | Inactive |  | 46.67% | Inactive |  |
